Assay results reported in US20250099420A1, “SMALL MOLECULE MODULATORS OF GPR139 COMPLEX” (University of Florida Research Foundation, Incorporated, priority 2022, published 2025).
Like-named read-outs stand apart in the source and are kept apart here.

Chains of the proteins cited; added tags and fusions are not shown.
UniProt Q6DWJ6, whole entry: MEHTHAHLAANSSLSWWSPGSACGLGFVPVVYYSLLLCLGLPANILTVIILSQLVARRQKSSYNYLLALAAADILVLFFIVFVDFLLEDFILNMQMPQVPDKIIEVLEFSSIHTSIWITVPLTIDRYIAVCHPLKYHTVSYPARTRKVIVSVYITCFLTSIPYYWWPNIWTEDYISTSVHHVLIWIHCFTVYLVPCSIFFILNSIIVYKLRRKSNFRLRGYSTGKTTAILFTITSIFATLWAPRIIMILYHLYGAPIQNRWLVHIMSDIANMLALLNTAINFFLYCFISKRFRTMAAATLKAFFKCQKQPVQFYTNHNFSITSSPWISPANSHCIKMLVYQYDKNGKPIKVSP

Columns and labels:
GPR139 [1] = target: T1, GPR139 (Homo sapiens, UniProt Q6DWJ6); assay: GPR139 Agonist titration / agonist counterscreen assay (calcium detection, HEK-GPR139 cells); assay type: cell-based; details: for Averaged Max % Response (±St. Dev.): activity relative to known control
parental HEK cells = assay: HEK parental Agonist Counterscreen Assay (non-transfected cells); assay type: cell-based; details: for Averaged Max % Response (±St. Dev.): activity relative to known control
GPR139 [2] = target: T1, GPR139; assay: GPR139 Antagonist titration assay (calcium detection, HEK-GPR139 cells, vs EC80 of S-JNJ-63533054)
[3] = GPR139 Agonist Activity, values printed in E-notation without unit
[4] = HEK Agonist Activity section of Table 4 (parental HEK counterscreen)
[5] = GPR139 Agonist Activity, HEK-GPR139 cells
[6] = GPR139 Agonist Activity, fitted dose-response curve

Row | Compound | Averaged Max % Response (±St. Dev.) (GPR139 [1]; GPR139 Agonist Activity) [%] | EC50 (GPR139 [1]; [3]) [nM] | EC50 (parental HEK cells; [4]) [nM] | Averaged Max % Response (±St. Dev.) (parental HEK cells; HEK Agonist Activity section) [%] | also measured
1 | CC12C=CC3(CN(Cc4ccccc4)C(=O)C3C1C(=O)NC1CCCc3ccccc31)O2 (centres unmarked) | 110.54 ± 17.48 | 104 | > 11300 | 1.95 ± 4.15 | 
2 | CCOC(=O)c1ccc(CSc2nnc(-c3ccccc3)n2N)cc1 |  | 192 | > 14100 | −11.97 ± 11.27 | 
3 | Cc1nn(CC(=O)NCCc2ccc(Cl)cc2)c(=O)c2cccn12 | 117.99 ± 3.71 | 2.6 |  |  | Averaged Max % Response (±St. Dev.) (parental HEK cells; HEK Agonist Activity): 40.29 ± 5.74%; EC50 (parental HEK cells; HEK Agonist Activity, parental non-transfected HEK cells): > 14100 nM
4 | N#Cc1ccc(NS(=O)(=O)c2ccc([N+](=O)[O-])cc2)cc1Cl |  |  |  |  | GPR139 Antagonist Activity Ligand Efficiency (GPR139 [2]): 0.35; GPR139 Antagonist Activity Hill Slope (GPR139 [2]; fitted dose-response curve): 1.24; EC50 (GPR139 [1]; read-out: GRP139 Agonist activity EC50, agonist counterscreen of the antagonists, scientific notation, molarity): > 14100 nM
5 | COc1ccc(CNS(=O)(=O)c2ccc3c(c2)CCN3C(=O)C2CC2)cc1 | 121.39 ± 22.69 |  | > 14100 | 29.14 ± 5.09 | EC50 (GPR139 [1]; [5]): 2000 nM
6 | O=C(CCCC1=Nc2ccccc2S(=O)(=O)N1)Nc1cccc2ccccc12 | 85.31 ± 30.99 |  | > 14100 | −0.76 ± 20.69 | Hill Slope (GPR139 [1]; GPR139 Agonist Activity): 1.05; Lipophilic Efficiency (logP) (GPR139 [1]; GPR139 Agonist Activity): 2.57; EC50 (GPR139 [1]; [5]): 1600 nM
7 | O=C(Cn1ncc2ccsc2c1=O)NCc1ccc(Cl)cc1 | 99.93 ± 9.60 | 134 | > 14100 | −3.95 ± 8.40 | Hill Slope (GPR139 [1]; [6]): 0.53
8 | Cc1ccc(CCNC(=O)c2cccc(N3CCCC3=O)c2)cc1 | 98.66 ± 13.78 | 96.3 | > 14100 | 5.89 ± 8.45 | Lipophilic Efficiency (logD) (GPR139 [1]; GPR139 Agonist Activity, based on logD): 4.11; Hill Slope (GPR139 [1]; [6]): 1.08
9 | CC1(c2ccc3ccccc3c2)NC(=O)N(CC(=O)NC2CCS(=O)(=O)C2)C1=O (centres unmarked) | 105.64 ± 11.39 | 235 | > 14900 | 19.47 ± 7.58 | 
10 | C=CCC(O)(CC=C)CNC(=O)CCC1(Cc2ccc3ccccc3c2)CCC(=O)N1 (centres unmarked) | 147.06 ± 19.10 | 121 | > 14100 | 9.63 ± 8.04 | 
11 | C=C(C)c1cccc(C(C)(C)NC(=O)Nc2ccc(N3CCOCC3)cc2)c1 | 121.73 ± 17.10 | 197 | > 14100 | 9.50 ± 11.03 | 
